# Yeast mating assay 1: variants of the scFv Ab-14

Antigen: PDVDLGDISGINAS, a 14-residue peptide of the SARS-CoV-2 spike HR2 region.

Parent scFv Ab-14: VH joined to VL by a (GGGGS)3 linker. Changes lie in the light chain CDRs alone.
VH: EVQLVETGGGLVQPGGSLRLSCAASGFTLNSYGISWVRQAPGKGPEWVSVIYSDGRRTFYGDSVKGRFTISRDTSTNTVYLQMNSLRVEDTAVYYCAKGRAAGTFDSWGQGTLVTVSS
VL: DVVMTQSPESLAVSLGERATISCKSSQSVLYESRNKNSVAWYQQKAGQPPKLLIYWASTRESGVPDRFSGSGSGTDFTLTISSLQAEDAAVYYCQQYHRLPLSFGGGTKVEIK

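The parent was found by panning a naive human phage display library on the peptide. Variants in AAYL50 differ from the parent at up to three CDR positions; double and triple changes were sampled at random. The assay is AlphaSeq: two haploid yeast populations carry antibody and antigen on their surface. Mating (16 h, 30 °C) was followed by selection of diploids and sequencing of their barcodes. Each replicate has its own calibration line, from reference interactions of the BCL2 family. The assay was run in three technical replicates.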

Variants are written as CDR1, CDR2 and CDR3 of the light chain (limits as in the source). Parent: KSSQSVLYESRNKNSVA, WASTRES, QQYHRLPLS. All variants listed here change Q96 of the VL, counted from its first residue. Each Kd is an estimate from the mating assay, the geometric mean of the replicates in which the pair was seen; lower is stronger. A pair that was not seen in any replicate is written "nd"; this usually means weak binding, but a binder can also be missed. Background: pairings of library AAYL50 with three empty control strains gave a value in 18% of cases (median 15 µM, 5th percentile 970 nM). Values in that range, when seen in few replicates, are hard to tell from nonspecific mating.

* KSSQSVLYESRNKNSVA, WASTRES, QRYHRLPDS -> 29 nM (3 of 3 replicates)
* KSSQCVLYESANKNSVA, WASTRES, QAYHRLPLS -> 34 nM (3 of 3 replicates)
* KSSQSSLYESRNKNSVA, WASTRES, QCYHILPLS -> 900 nM (3 of 3 replicates)
* KSSQSVHYESRNKNSVA, WASTRFS, QMYHRLPLS -> 500 nM (3 of 3 replicates)
* KSSQSVLYESRNTNSVA, WASTRES, QIYHRCPLS -> nd (0 of 3 replicates)
* KSSQNVLYESRNKNSVA, WASTRKS, QRYHRLPLS -> 57 µM (2 of 3 replicates)
* KSSQSVLYESRNKKSVA, WASTRES, QTYHRLPLS -> 3.9 µM (2 of 3 replicates)
* KSSQSVLYESRNKNSVA, WKSTRES, QAYLRLPLS -> nd (0 of 3 replicates)
* KLSQSVLYESRNKNSMA, WASTRES, QRYHRLPLS -> nd (0 of 3 replicates)
* KSSGSVLYEYRNKNSVA, WASTRES, QAYHRLPLS -> 29 µM (2 of 3 replicates)
* KSSQSVLYESRNKNSVA, WASTREI, QLYHRLPLS -> 16 nM (3 of 3 replicates)
* KSSQSVWYESRNKNSVA, WASTRES, QMDHRLPLS -> 66 µM (2 of 3 replicates)
* KSSQSVLYESRNKNSVA, FASTRER, QHYHRLPLS -> 1.9 µM (3 of 3 replicates)
* KSSQAVLYESRNKNSVA, WASTRES, QYYHRLCLS -> 2.6 µM (1 of 3 replicates)
* KSSQSVLYESRNKNSVA, WAITRES, ISYHRLPLS -> 22 µM (2 of 3 replicates)
* KSSQSVLYESRNKNSVA, WAMTRES, QEYHRKPLS -> nd (0 of 3 replicates)
* KSSQSVLYESRNKNSVA, WASTRIS, QWGHRLPLS -> 9.4 µM (1 of 3 replicates)
* KSSQNVLYESRNKNSVA, WASTRES, QCYHRLPLS -> 28 nM (3 of 3 replicates)
* KSSQSVLYESRNKNSGA, WAPTRES, QCYHRLPLS -> 160 µM (2 of 3 replicates)
* KSSQSVLYGSRNKNSVA, WASTRES, QKYQRLPLS -> nd (0 of 3 replicates)
* KSSQPVLYESRNKNSVA, WASTDES, QYYHRLPLS -> nd (0 of 3 replicates)
* KSSQSVLYEARNKNSVA, WASTRES, PLYHRLPLS -> 1.2 µM (3 of 3 replicates)
* KSSQSVLYESRNKNSVA, WASSRES, LWYHRLPLS -> 29 µM (3 of 3 replicates)
* KSSQSVLYESRNKTSVA, WTSTRES, QSYHRLPLS -> 1.2 µM (3 of 3 replicates)
* YSSQSVYYESRNKNSVA, WASTRES, QSYHRLPLS -> 270 nM (3 of 3 replicates)
* KSSQSVLGESRNKNSVA, WASTRES, QMYHRLPLS -> 3.2 nM (3 of 3 replicates)
* KSSQSVLYEQRNLNSVA, WASTRES, QYYHRLPLS -> 160 nM (3 of 3 replicates)
* KSSQSVLTESRNQNSVA, WASTRES, QRYHRLPLS -> nd (0 of 3 replicates)
* KSSQTVLYESRNQNSVA, WASTRES, QPYHRLPLS -> 9.7 µM (1 of 3 replicates)
* KSSMSVLYESRNKNSVT, WASTRES, QIYHRLPLS -> nd (0 of 3 replicates)
* KSSQSVLYESRNKNSVA, WASTRES, QLFHRLPLS -> 420 nM (3 of 3 replicates)
* KSSQSVLYESRNKNSVA, WASVIES, QHYHRLPLS -> nd (0 of 3 replicates)
* KLSQSVLYESRNKNSVA, WASTRES, QSNHRLPLS -> 2.9 µM (2 of 3 replicates)
* KSSQSVLMESRNKNSVA, WAHTRES, QKYHRLPLS -> 4.4 µM (3 of 3 replicates)
* KSSQSVLYESRNKNSWA, WASTRES, QGYHRYPLS -> nd (0 of 3 replicates)
* KSSQSVLYESQNKNSVA, WASTREA, QSYHRLPLS -> 3.2 µM (1 of 3 replicates)
* KSSQSVLYESRNKNTVA, DASTRES, QKYHRLPLS -> 32 µM (1 of 3 replicates)
* KSSQSVLYESRNKNSVA, WASTRES, SVYHRLPLS -> nd (0 of 3 replicates)
* KSSQSVLYPSRSKNSVA, WASTRES, QEYHRLPLS -> 27 nM (3 of 3 replicates)
* KSSQSVLYESRNKSSVA, WASTRES, QVYHRLPLL -> 6.7 µM (2 of 3 replicates)
* KSSQSVLYESRNKNSVA, PASTRES, QDYHRLPVS -> nd (0 of 3 replicates)
* KSSQSVLYESRNKNEVA, WASTRES, QEYHELPLS -> 51 µM (1 of 3 replicates)
* KSSQSVLYESRNKNSVA, WASTRES, QWYHKSPLS -> 1.6 µM (1 of 3 replicates)
* KSSNSVLYESRNKNSVA, WASTRES, QAYHKLPLS -> 10 nM (3 of 3 replicates)
* KSSQSVLYESRNKNSVA, WASNRES, QLYCRLPLS -> nd (0 of 3 replicates)
* KSDQSVLYESRNKNSVA, WASTRES, QMYHRLPLS -> 14 nM (3 of 3 replicates)

6 of these entries, quoted again:

{"CDR-L1": "KSSQPVLYESRNKNSVA", "CDR-L2": "WASTDES", "CDR-L3": "QYYHRLPLS", "Kd (apparent)": "nd", "detected": "0 of 3"}
{"CDR-L1": "KSSQSSLYESRNKNSVA", "CDR-L2": "WASTRES", "CDR-L3": "QCYHILPLS", "Kd (apparent)": "900 nM", "detected": "3 of 3"}
{"CDR-L1": "KSSQTVLYESRNQNSVA", "CDR-L2": "WASTRES", "CDR-L3": "QPYHRLPLS", "Kd (apparent)": "9.7 µM", "detected": "1 of 3"}
{"CDR-L1": "KSSQSVLYESRNKNSVA", "CDR-L2": "WAITRES", "CDR-L3": "ISYHRLPLS", "Kd (apparent)": "22 µM", "detected": "2 of 3"}
{"CDR-L1": "KSSGSVLYEYRNKNSVA", "CDR-L2": "WASTRES", "CDR-L3": "QAYHRLPLS", "Kd (apparent)": "29 µM", "detected": "2 of 3"}
{"CDR-L1": "YSSQSVYYESRNKNSVA", "CDR-L2": "WASTRES", "CDR-L3": "QSYHRLPLS", "Kd (apparent)": "270 nM", "detected": "3 of 3"}

Source: Engelhart et al. 2022 (doi:10.1038/s41597-022-01779-4), MIT Lincoln Laboratory and A-Alpha Bio; data file from the FLAb repository.